Source: ChEMBL document CHEMBL2321806, “Optimization of peptide hydroxamate inhibitors of insulin-degrading enzyme reveals marked substrate-selectivity” (J Med Chem, 2013)

Sequences of proteins named here, by UniProt entry; tags and fusion partners are left off.
UniProt P14735, whole entry: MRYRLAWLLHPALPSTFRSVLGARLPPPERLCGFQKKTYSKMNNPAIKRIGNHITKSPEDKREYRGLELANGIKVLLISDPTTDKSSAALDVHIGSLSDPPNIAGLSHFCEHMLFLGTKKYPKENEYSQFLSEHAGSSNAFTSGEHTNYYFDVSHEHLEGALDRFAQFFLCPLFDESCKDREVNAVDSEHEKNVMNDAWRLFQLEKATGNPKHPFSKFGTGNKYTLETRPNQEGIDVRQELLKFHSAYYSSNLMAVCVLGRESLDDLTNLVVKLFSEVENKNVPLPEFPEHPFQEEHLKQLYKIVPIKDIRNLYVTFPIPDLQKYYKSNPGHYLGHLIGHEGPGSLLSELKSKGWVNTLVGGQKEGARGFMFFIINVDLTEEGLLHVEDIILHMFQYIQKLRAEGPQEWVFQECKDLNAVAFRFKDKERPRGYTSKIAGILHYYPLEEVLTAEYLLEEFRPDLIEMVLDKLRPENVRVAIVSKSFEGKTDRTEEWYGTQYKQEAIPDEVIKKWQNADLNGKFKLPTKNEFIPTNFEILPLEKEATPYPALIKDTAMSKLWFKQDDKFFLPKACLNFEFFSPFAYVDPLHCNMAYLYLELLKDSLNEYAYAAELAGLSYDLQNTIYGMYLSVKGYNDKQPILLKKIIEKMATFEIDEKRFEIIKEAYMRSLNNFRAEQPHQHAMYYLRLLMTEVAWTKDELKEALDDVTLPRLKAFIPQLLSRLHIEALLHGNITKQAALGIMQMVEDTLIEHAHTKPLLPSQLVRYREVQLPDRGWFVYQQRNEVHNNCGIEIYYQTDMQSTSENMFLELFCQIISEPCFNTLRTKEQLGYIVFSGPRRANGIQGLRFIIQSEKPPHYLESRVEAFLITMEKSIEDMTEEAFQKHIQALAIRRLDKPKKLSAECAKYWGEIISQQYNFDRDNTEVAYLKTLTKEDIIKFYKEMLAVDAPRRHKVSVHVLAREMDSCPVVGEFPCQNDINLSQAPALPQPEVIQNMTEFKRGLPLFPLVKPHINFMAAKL

Biological target: Insulin-degrading enzyme (Homo sapiens, UniProt P14735)
Experiment: Selectivity ratio of apparent Ki for human recombinant IDE-mediated fluorescein-Abeta-(1-40)-Lys-biotin degradation to apparent Ki for human recombinant IDE-mediated FRET1 degradation

N=C(N)NCCC[C@H](NC(=O)[C@@H](CC(=O)NO)Cc1ccc2ccccc2c1)C(=O)N[C@@H](Cc1c[nH]c2ccccc12)C(=O)N[C@@H](CCC(=O)O)C(N)=O
Ratio Ki(app): 10
